{"sequences": {"note": "The chains behind the UniProt entries cited, without tags or fusion partners. Where a name states a change or a piece, a line headed by the entry shows the natural chain unless it says otherwise.", "UniProt C7C422": "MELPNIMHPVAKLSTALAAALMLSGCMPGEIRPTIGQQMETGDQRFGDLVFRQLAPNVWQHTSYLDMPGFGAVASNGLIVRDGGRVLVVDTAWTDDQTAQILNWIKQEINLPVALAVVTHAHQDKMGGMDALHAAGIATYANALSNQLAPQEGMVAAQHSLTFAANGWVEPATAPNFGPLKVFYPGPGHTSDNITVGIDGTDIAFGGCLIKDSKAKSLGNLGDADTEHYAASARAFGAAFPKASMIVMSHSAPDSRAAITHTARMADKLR"}, "source": "ChEMBL document CHEMBL5532662", "about": "“Exploiting the Carboxylate-Binding Pocket of β-Lactamase Enzymes Using a Focused DNA-Encoded Chemical Library” (J Med Chem, 2024)", "biological_target": "Metallo-beta-lactamase type 2 (Bacteria, UniProt C7C422)", "experiment": "biochemical", "note": "pKi: −log10 of the molar value.", "data": [{"smiles": "CN(C)C(=O)c1ccc(CNCc2ccc(O)c(C(=O)O)c2)s1", "values": [{"measurement": "pKi", "value": 3.92}]}]}
